CCT modulator = High-Throughput Screening for Modulators of Cytosolic Chaperonin Activity; AID 651819, 2012; hit rate 0.3% among 360,000; purified chaperonin ATPase assay, HTRF ADP detection, 30 min; activity change, % (concentration not given with the values), hits read low; in the data active = activity change below about -30%; also: % is scaled to controls: 0 for no effect and ±100 for the full control effect
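TRiC (40 or 20 nM final, by batch activity) in 30 mM Tris pH 7.4, 100 mM KCl, 5 mM MgCl2, 1 mM DTT was treated with compound at 76 uM single dose, then 10 uM ATP, 30 min at 37 °C. ADP was read by HTRF Transcreener.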
Rango release inh = qHTS Assay for Inhibitors of RanGTP induced Rango (Ran-regulated importin-beta cargo) - Importin beta complex dissociation | Snurportin-1 (Homo sapiens) + GTP-binding nuclear protein Ran (Homo sapiens) + Importin … | hit rate 0.071% among 340,000 | Potency, µM (top dose mostly 46.1 µM), for inactives: top-dose activity change, negative = inhibition | AID 540253, 2011 | Biochemical FRET Rango-importin beta, RanGTP-induced dissociation; also: potency is read from the fitted curve at half-maximal effect; % of control where 0% means no effect; nearly all actives have a fitted effect of over 45% in size
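Rango FRET biosensor (snurportin-1 IBB flanked by N-terminal EYFP and C-terminal CFP10) at 0.1 uM, with 0.25 uM importin beta in PBS, 1mM DTT, 0.02% Tween-20, 0.1% BSA. 0.6 uM Ran, 2mM GTP and 0.2 uM RCC1 were then added for 45 min at room temperature. Inhibition read as loss of FRET rise.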
Giardia kill = Small Molecules that selectively kill Giardia lamblia: qHTS | Giardia lamblia trophozoite viability | activity change, % at 7.66 µM, hits read low | hit rate 0.15% among 340,000; in the data active = activity change below about -80%; inconclusive = between about -30% and that limit;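 also: parasites exposed to compound for two days anaerobically before the ATP read; % is scaled to controls: 0 for no effect and ±100 for the full control effect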
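Anaerobic 48 hrs incubation at 37 deg C of 100 trophozoites/well with test compounds; ATPLite 1-Step luminescence, 15-30 min RT, reports cellular ATP as viability.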
Rango-impB inh = qHTS Assay for Inhibitors of Rango (Ran-regulated importin-beta cargo) - Importin beta complex formation; Potency, µM (doses to about 92.2 µM), for the others: at the highest dose inhibition of complex formation; Rango CFP/YFP FRET sensor + importin beta, 45 min; hit rate 0.031% among 340,000;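 also: potency is read from the fitted curve at half-maximal effect; 0% = DMSO wells and 100% = buffer wells lacking importin beta; nearly all actives have a fitted effect of over 15% in size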
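FRET biosensor (snurportin 1 IBB flanked by EYFP and cerulean), 50 nM, with compound 5 min, then 0.125 microM importin beta in PBS, 1 mM DTT, 0.02% Tween-20, 0.1% BSA. CFP/YFP ratio read after 45 min at room temperature; pre-read flags interference.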
MmCpn inh = Inhibitors of TCP-1 ring complex (TRiC) of Methanococcus maripaludis (MmCpn): qHTS. purified Mm-Cpn ATPase, ADP Transcreener TR-FRET. Potency, µM (titrated, usually from 76.9 µM), for inactives: at the highest dose activity, negative = inhibition, hits mostly inhibitors. hit rate 0.031% among 330,000. AID 504842, 2011; active = well fitted inhibition curve with a large enough effect; inconclusive = small, poorly fitted or top-dose-only effect; also: potency is read from the fitted curve at half-maximal effect; % is scaled to controls: 0 for no effect and ±100 for the full control effect; nearly all actives have a fitted effect of over 80% in size
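TR-FRET (320 nm excitation; 590 and 665 nm emission) reports ADP made from 10 uM ATP by 25 nM enzyme; compounds were preincubated 10 min, reaction run 30 min, both at 37°C.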
Numbers without * were called inactive; ? = inconclusive; · = not tested or not shown. A selection: hits, their analogues and other compounds. The true share with any hit is near 0.53%. Unless noted, calls follow the shape of the full dose curve.

#1 CCOc1ccccc1N1CC(C(=O)N(Cc2nnc(-c3ccccc3Cl)o2)C2CC2)CC1=O (configuration not stated)
#2 CCCCOC(=O)Nc1ccc(S(=O)(=O)Nc2ccc([N+](=O)[O-])cc2)cc1
#3 CCCCCOC(=O)Nc1ccc(S(=O)(=O)Nc2cccc([N+](=O)[O-])c2)cc1
#4 Cc1onc(-c2ccccc2)c1-c1ccnc(N)n1
#5 Cc1ccc(C)n1-c1ccc(-c2ccnc(N)n2)cc1
#6 CC12CCC=CC1C(c1ccoc1)N(Cc1ccccc1)C2=O (configuration not stated)
#7 COC(CNC(=O)C1CCN(S(=O)(=O)c2cccc3nsnc23)CC1)OC
#8 CCCN(CCC)CCNC(=O)C1CCN(S(=O)(=O)c2cccc3nsnc23)CC1

Screen / compound no.,1,2,3,4,5,6,7,8
CCT modulator,-36*,0,-53*,-4,-4,·,-75*,0
Rango release inh,15%,-21%,6%,?,15µM*,·,23%,14%
Giardia kill,0,-17,15,2,9,-9,0,-8
Rango-impB inh,1%,0%,-3%,?,?,·,0%,5%
MmCpn inh,0%,-1%,0%,-4%,-1%,·,-18%,1%

#9 CCn1cc(/C=C(\NC(=O)c2ccc(OC)c(OC)c2)C(=O)NCCCN2CCOCC2)c2ccccc21
#10 CC1(C)CC(=O)C2=C(C1)NC(Nc1nc3ccccc3o1)=NC2c1ccccc1 (configuration not stated)
#11 NN=C1c2cc(S(=O)(=O)NCCO)ccc2-c2ccc(S(=O)(=O)NCCO)cc21
#12 Cc1ccc(C(=O)Nc2ccc(OCc3ccccc3)cc2)cc1[N+](=O)[O-]
#13 O=C(Nc1ccc(OCc2ccccc2)cc1)c1cccc([N+](=O)[O-])c1
#14 COc1cc(/C=C/C(=O)OC(C)C(=O)Nc2c(C)n(C)n(-c3ccccc3)c2=O)ccc1O (configuration not stated)
#15 CCCN1C(=O)c2ccccc2NC1c1ccc(OC)cc1O (configuration not stated)
#16 CCCN1C(=O)c2ccccc2NC1c1ccc(OC)cc1OC (configuration not stated)

Screen / compound no.,9,10,11,12,13,14,15,16
CCT modulator,-81*,·,·,-2,-46*,1,-86*,2
Rango release inh,-6%,·,·,27%,-12%,23µM*,-5%,-24%
Giardia kill,-7,-14,-9,7,-4,8,-4,-3
Rango-impB inh,0%,·,·,3%,3%,?,6%,4%
MmCpn inh,-1%,·,·,1%,2%,1%,1%,-1%

#17 CC(=O)Nc1nc2n(n1)C(c1ccc(Cl)cc1)C=C(C)N2 (configuration not stated)
#18 CC1=CC(c2ccc(Cl)cc2)n2nc(NC(=O)c3ccccc3)nc2N1 (configuration not stated)
#19 CCOC(=O)CN(C)C(=O)C1CC(CO[Si](C)(C)C(C)(C)C)=CN1C(=O)OC(C)(C)C (configuration not stated)
#20 COC(=O)CSc1nc(C(C)C)nc2ccccc12
#21 CCOC(=O)CSc1nc(C(C)C)nc2ccccc12
#22 CCCN1CNc2c(c(=O)[nH]c(=S)n2CCc2ccc(OCC)c(OCC)c2)C1
#23 Nc1ccc2nc(CN3CCOCC3)[nH]c2c1
#24 CCOC(=O)CN1C(=O)S/C(=C/c2ccc3c(c2)n(C)c(=O)n3C)C1=O

Screen / compound no.,17,18,19,20,21,22,23,24
CCT modulator,0,0,·,1,-43*,·,-36*,-1
Rango release inh,13µM*,-9%,·,-9%,2%,·,-7%,0%
Giardia kill,14,-14,-9,-16,-17,-3,2,-2
Rango-impB inh,?,?,·,-1%,5%,·,0%,-2%
MmCpn inh,-4%,-6%,·,-9%,-5%,·,0%,-3%

#25 CCOC(=O)CN1C(=O)S/C(=C/C=C/c2ccc(N(C)C)cc2)C1=O
#26 COc1ccc(/C=C/c2ccncc2)cc1
#27 Cc1cccc(N=Nc2c(C)c(C#N)c(O)[nH]c2=O)c1
#28 COCc1cc(CNC(=O)C2CCC(=O)N(Cc3ccccc3OC)C2)[nH]n1 (configuration not stated)
#29 COc1ccc2nc(CNC(=O)C3CCC(=O)N(CCc4ccccc4)C3)[nH]c2c1 (configuration not stated)
#30 COCc1cc(CNC(=O)C2CCC(=O)N(Cc3cccc(OC)c3)C2)[nH]n1 (configuration not stated)
#31 COc1cccc(CN2CC(C(=O)N(C)Cc3nc(C)cs3)CCC2=O)c1 (configuration not stated)
#32 COc1cccc(CN2CC(C(=O)N(C)CCc3ccccc3)CCC2=O)c1 (configuration not stated)

Screen / compound no.,25,26,27,28,29,30,31,32
CCT modulator,1,-52*,1,2,-56*,-48*,-31*,-1
Rango release inh,12%,4%,-15%,5%,-11%,-6%,0%,-5%
Giardia kill,2,-3,-97*,24,-16,8,-7,-6
Rango-impB inh,5.8µM*,-1%,-2%,-4%,?,-2%,-4%,-1%
MmCpn inh,0%,0%,2%,5%,-1%,-1%,1%,0%

Screen by screen, quoted from above:
Compounds 25 to 28 in Giardia kill, in turn: 2, -3, -97*, 24
Compounds 25 to 28 in Rango release inh, in turn: 12%, 4%, -15%, 5%
Compounds 25 to 28 in Rango-impB inh, in turn: 5.8µM*, -1%, -2%, -4%

Next section:
#33 O=S(=O)(c1ccc(F)cc1)N1CCN(c2nc(-c3cccc(Br)c3)nc3ccccc23)CC1
#34 O=C(NC(C(=O)N/N=C/c1cc([N+](=O)[O-])ccc1O)c1n[nH]c(=O)c2ccccc12)c1ccccc1 (configuration not stated)
#35 COc1ccc(-c2nc(N3CCN(S(=O)(=O)c4ccccc4)CC3)c3ccccc3n2)cc1
#36 Cn1c(/C(C#N)=C(\O)c2ccc([N+](=O)[O-])s2)nc2ccccc21
#37 CN1c2ccccc2C(=O)N2CCc3c([nH]c4ccccc34)C21 (configuration not stated)
#38 COc1cc(NC(=O)COc2cc3oc(=O)cc(C)c3cc2Cl)cc(OC)c1OC
#39 N#CCc1nc(-c2cc3ccccc3oc2=O)cs1
#40 O=c1oc2ccccc2cc1-c1nc(-c2cccs2)cs1
#41 CC(=O)c1c(C)nc(-c2ccc(Cl)cc2)nc1NC(=O)C(C)C
#42 O=C(COC(=O)c1cccc(OC(F)F)c1)NC(=O)NC1CCCCC1
#43 N#Cc1cccc(C(=O)OCC(=O)NC(=O)NC2CCCCC2)c1

Screen / compound no.,33,34,35,36,37,38,39,40,41,42,43
CCT modulator,·,-2,·,1,·,-59*,-32*,-4,-74*,0,-42*
Rango release inh,·,16µM*,·,10%,·,-12%,-3%,?,3%,16%,-2%
Giardia kill,-16,-1,-12,-86*,-3,-9,0,-14,8,-9,-14
Rango-impB inh,·,?,·,1%,·,1%,-1%,?,5%,0%,2%
MmCpn inh,·,2%,·,1%,·,1%,-13%,-2%,-1%,2%,0%

Single records (already shown). Order of values: CCT modulator | Rango release inh | Giardia kill | Rango-impB inh | MmCpn inh
Cc1ccc(C)n1-c1ccc(-c2ccnc(N)n2)cc1 in the list: -4 | 15µM* | 9 | ? | -1%
CCOc1ccccc1N1CC(C(=O)N(Cc2nnc(-c3ccccc3Cl)o2)C2CC2)CC1=O (configuration not stated) in the list: -36* | 15% | 0 | 1% | 0%
